From US20060073528A1, “Measurement methods” (priority 2004, published 2006) come the findings set out here.

The nature of the series: Sample stability of DM1-related impurities with DS-DM1-deJ591 in the autosampler (Hisep RP-HPLC).

Turning to `S=c1cccc[nH]1` [mercaptopyridine], the “% remaining area counts relative to t = 0 h” value runs as follows: (t = 12 h) 101.35%; (t = 24 h) 101.13%.
